Target: CDK2 (Homo sapiens, UniProt P24941)
Assay: CDK2 kinase inhibition assay
Format: biochemical
Conditions: 12.5 μM ATP

IC50: 1 µM
Structure (SMILES): c1ccc(Nc2nc(OCC3CCCCC3)c3nc[nH]c3n2)cc1 [2-aminophenyl-6-(cyclohexylmethoxy)-9H-purine]

Source: paper PMC5386672, “Structure-guided design of purine-based probes for selective Nek2 inhibition” (Oncotarget, 2016)
